From patent US12233105B1, “Methods for storing and warming purified corticotropin compositions” (ANI Pharmaceuticals, Inc., priority 2022, dated 2025)

Test system: THP-1 Blue, Raw Blue, HEK-blue hTLR3, HEK-Blue hTLR4, HEK-Blue hNOD2
Assay: Innate immune response activation assays in TLR/NOD2 reporter cell lines
Assay type: cell-based
Conditions: 5 cell lines covering TLR and NOD2 expression; 3 PPQ lots; highest drug substance concentration tested 10 μg/mL
Procedure: Method development, qualification, and testing for activation of innate immune response was performed. The innate immune assays performed compared 3 PPQ lots. The work was conducted using 5 cell lines to cover TLR and NOD2 expression (THP-1 Blue, Raw Blue, HEK-blue hTLR3, HEK-Blue hTLR4, HEK-Blue hNOD2). Positive control ligands Poly (I: C) HMW, LPS-EK, FSL-1, CL075 and MDP were included in each assay. […] The highest drug substance concentration tested was 10 μg/mL. A dose of the sterile preparation of purified corticotropin at 80 U is, equivalent to approximately 1 mg of drug substance per total body weight of subject.

For FSL-1, the “dose response for activation of innate immune response” value was “robust dose responses”.
